Only a part is listed here, and it is no random draw. Some of these compounds have results that are not shown, active ones among them. Active and inactive are the calls of the source.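 Rule for the calls: active = inhibition above the mean of compounds falling within the control limits plus 3 SD of them (cut at about 14% in these data); inactive = the rest.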
biological target: Fibrinogen beta chain (Homo sapiens) (UniProt P02675); assay: inhibitors of Tn7 peptide binding to fibrin DD(E), primary screen, biochemical, fluorescence polarization, human fibrin, Tn7 probe (AID 720508); conditions: FP displacement of FITC-Tn7 peptide from fibrin DD(E); at 8.3 µM; hits give high values; 0% = median of compound wells per plate;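 note: 0% = plate median of compound wells and 100% = 10 µM Aha-Tn7 peptide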

Chains of the proteins cited; added tags and fusions are not shown.
UniProt P02675, whole entry, looked up: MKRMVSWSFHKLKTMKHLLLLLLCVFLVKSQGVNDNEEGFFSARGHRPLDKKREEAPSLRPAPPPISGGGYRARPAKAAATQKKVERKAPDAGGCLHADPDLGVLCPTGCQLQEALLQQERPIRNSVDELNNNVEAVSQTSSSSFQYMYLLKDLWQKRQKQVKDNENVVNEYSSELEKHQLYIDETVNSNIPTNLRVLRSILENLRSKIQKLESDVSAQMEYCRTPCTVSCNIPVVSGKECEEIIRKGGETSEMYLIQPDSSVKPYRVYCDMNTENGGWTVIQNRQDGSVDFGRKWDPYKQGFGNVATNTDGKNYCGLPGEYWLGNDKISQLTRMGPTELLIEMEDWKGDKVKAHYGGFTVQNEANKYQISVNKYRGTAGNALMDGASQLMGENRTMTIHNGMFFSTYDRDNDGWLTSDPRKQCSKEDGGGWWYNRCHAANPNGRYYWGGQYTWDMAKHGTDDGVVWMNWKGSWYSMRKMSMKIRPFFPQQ

Row | Structure (SMILES) | inhibition
1 | O=C(NCC1(N2CCCCC2)CCCCC1)c1cccc(Cl)c1 | inactive: 0.72%
2 | COc1ccc(Cl)cc1C(=O)NCC1(N(C)C)CCCCC1 | inactive: 1.41%
3 | COc1cccc(C(=O)NCC2(N3CCCCC3)CCCCC2)c1 | inactive: -7.8%
4 | COc1cc(C(=O)NCC2(N(C)C)CCCCC2)c([N+](=O)[O-])cc1OC | inactive: 2.55%
5 | CN(C)C1(CNC(=O)c2ccc(Br)cc2)CCCCC1 | inactive: -2.71%
6 | CN(C)c1cccc(C(=O)NCC2(N(C)C)CCCCC2)c1 | inactive: 8.12%
7 | O=C(OCCN1CCCC1)C(O)(c1ccccc1)c1ccccc1 | inactive: -0.61%
8 | CC(C)Oc1ccc(C(=O)NCC2(N(C)C)CCCCC2)cc1 | inactive: 0.9%
9 | COc1ccc(Br)c(C(=O)NCC2(N3CCCCC3)CCCCC2)c1 | inactive: 1.33%
10 | C=C(C)C#CC(O)(C(=O)OC1CCN(C)CC1)c1ccccc1 (stereo unspecified) | inactive: 0.29%
11 | O=C(OC1CN2CCC1CC2)C(CO)(c1ccccc1)c1ccccc1 (stereo unspecified) | inactive: 2.09%
12 | Cc1ccc(C(=O)NCC2(N3CCCCC3)CCCCC2)cc1 | inactive: 2.14%
13 | CC(C)N1C(=O)CC2(CCN(CCOC(=O)C(O)(c3ccccc3)c3ccccc3)CC2)C1=O | inactive: 3.3%
14 | COc1cc(SC)ccc1C(=O)NCC1(N(C)C)CCCCC1 | inactive: 0.96%
15 | CCN(CC)CC(C)C(C)OC(=O)C(O)(c1ccccc1)c1ccccc1 (stereo unspecified) | inactive: -3.93%
16 | CN1[C@@H]2CC[C@H]1CC(OC(=O)C(O)(c1ccccc1)c1ccccc1)C2 (stereo partly specified) | inactive: -5.06%
17 | O=C(NCC1(N2CCCCC2)CCCCC1)c1cc([N+](=O)[O-])ccc1Cl | inactive: 3.18%
18 | O=C(NCC1(N2CCCCC2)CCCCC1)c1cccc(Br)c1 | inactive: 3.86%
19 | CCN1CCCC(OC(=O)C2(O)c3ccccc3C=Cc3ccccc32)C1 (stereo unspecified) | inactive: 1.3%
20 | Cc1cc(C(=O)NCC2(N3CCCCC3)CCCCC2)ccc1[N+](=O)[O-] | inactive: -5.16%
21 | COc1ccc(C(=O)NCC2(N(C)C)CCCCC2)cc1 | inactive: 3.82%
22 | O=C(NCC1(N2CCCCC2)CCCCC1)c1cc(F)c(F)cc1Cl | inactive: -1.92%
23 | C=CCN1CCN(CCOC(=O)C(O)(c2ccccc2)c2ccccc2)CC1 | inactive: -4.66%
24 | CN(C)c1ccc(C(=O)NCC2(N(C)C)CCCCC2)cc1 | inactive: -6.59%
25 | CN(C)C1CCCC1OC(=O)C(O)(c1ccccc1)c1ccccc1 (stereo unspecified) | inactive: 0.42%
26 | Cc1ccccc1C(=O)NCC1(N2CCCCC2)CCCCC1 | inactive: -7.86%
